Among the data in paper PMC5524698, “A cell-based, quantitative and isoform-specific assay for exchange proteins directly activated by cAMP” (Scientific Reports, 2017) are IC50 values, retold here.

This experiment deals with T1, EPAC2 (Mus musculus, UniProt Q9EQZ6).
T1 construct: HEK293 cell lines stably expressing Flag-tagged Rap1A and full-length EPAC1 or EPAC2 are proposed; expressed in transfected cells
T1 sequence (Q9EQZ6 1-1011): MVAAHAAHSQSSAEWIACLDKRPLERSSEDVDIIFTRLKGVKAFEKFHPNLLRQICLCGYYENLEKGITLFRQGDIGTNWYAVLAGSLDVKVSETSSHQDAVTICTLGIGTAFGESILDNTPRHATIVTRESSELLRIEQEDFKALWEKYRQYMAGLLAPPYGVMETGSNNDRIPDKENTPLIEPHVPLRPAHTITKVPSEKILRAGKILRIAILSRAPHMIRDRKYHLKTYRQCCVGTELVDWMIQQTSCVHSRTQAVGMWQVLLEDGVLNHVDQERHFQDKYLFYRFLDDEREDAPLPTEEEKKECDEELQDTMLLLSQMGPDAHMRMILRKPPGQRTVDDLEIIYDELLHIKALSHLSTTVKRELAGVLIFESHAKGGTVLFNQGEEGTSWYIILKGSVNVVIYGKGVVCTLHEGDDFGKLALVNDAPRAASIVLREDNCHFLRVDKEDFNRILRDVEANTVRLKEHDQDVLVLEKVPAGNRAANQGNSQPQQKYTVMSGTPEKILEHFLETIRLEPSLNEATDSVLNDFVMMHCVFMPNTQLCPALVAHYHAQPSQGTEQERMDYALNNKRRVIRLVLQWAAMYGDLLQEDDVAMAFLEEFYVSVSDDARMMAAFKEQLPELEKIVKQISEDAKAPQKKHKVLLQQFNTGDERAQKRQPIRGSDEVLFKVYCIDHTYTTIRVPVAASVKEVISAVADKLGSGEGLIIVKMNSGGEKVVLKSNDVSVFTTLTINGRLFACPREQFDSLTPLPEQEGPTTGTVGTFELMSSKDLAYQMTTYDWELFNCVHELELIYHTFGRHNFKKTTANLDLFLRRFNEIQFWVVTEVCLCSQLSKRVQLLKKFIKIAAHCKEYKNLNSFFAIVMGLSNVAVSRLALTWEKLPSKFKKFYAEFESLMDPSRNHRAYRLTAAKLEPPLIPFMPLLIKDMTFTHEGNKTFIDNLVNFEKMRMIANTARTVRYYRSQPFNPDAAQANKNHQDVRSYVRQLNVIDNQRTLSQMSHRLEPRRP
The experiment in a line: Cellular Rap1 assay (ELISA for Rap1-GTP) in HEK293/mEPAC2/Flag-Rap1 cells. Format: cell-based. From the text:
To develop a cell-based, isoform-specific EPAC activation assay, HEK293 cell lines stably expressing Flag-tagged Rap1A and full-length EPAC1 or EPAC2 are proposed. HEK293 cells express minimal endogenous levels of EPAC1 and EPAC2 and have been used as host cells for evaluating the cellular activities of ectopically expressed EPAC proteins in an isoform-specific manner. Activation of EPAC1 or EPAC2 in these cell lines by cAMP elevating agents leads to the accumulation of Flag-Rap1-GTP, which can be captured by RalGDS-RBD immobilized in a nickel-coated 96-well microplate. The levels of active Flag-Rap1-GTP protein can be quantitatively monitored using a specific anti-FLAG antibody and a HRP conjugated secondary antibody in a manner similar to that of a conventional ELISA assay (Fig. 1). […]
HEK293 cells co-expressing hEPAC1/Flag-tagged hRap1A or mEPAC2/Flag-tagged hRap1A were seeded in 12-well plates (Corning #3513) at an initial confluency of 400,000 cell/well and incubate at 37 °C, 5% CO2, in MEM medium with 10% FBS, for 24 hours. […] Cell extracts were clarified by centrifugation at 18,000 RCF for 20 min and their protein concentrations were determined by DC protein assay kit. […] 200 µl of OPD substrate was added into each well and absorbance signal at 450 nm was monitored using an M2 microplate reader (Molecular Devices) for 30 min with 1-min intervals. […]
Background: In an ELISA, binding on a coated surface is turned into a signal by an enzyme label.

Read-outs that look alike come from different tables or passages of the source.

As for `Cc1ccc(S(=O)(=O)c2c(C)cc(C)cc2C)cc1` [ESI-05], the IC50 (as a rule, the concentration needed to halve the response being measured) reads like this: (basal (unstimulated) HEK293/mEPAC2/Flag-Rap1 cells, read-out: IC50, inhibition of basal EPAC2 activity) 1200 ± 400 nM; (stimulated by 1 µM forskolin, pretreatment, HEK293/mEPAC2/Flag-Rap1 cells, read-out: apparent IC50, inhibition of cellular EPAC2 activity) 621 ± 154 nM.
